Here are results for seven molecules from US20220204611A1 (Amgen, published 2022).

By UniProt entry, the sequences of proteins in these tests, tags left out. Residues count along the entry.
UniProt Q9NP99, 21-234: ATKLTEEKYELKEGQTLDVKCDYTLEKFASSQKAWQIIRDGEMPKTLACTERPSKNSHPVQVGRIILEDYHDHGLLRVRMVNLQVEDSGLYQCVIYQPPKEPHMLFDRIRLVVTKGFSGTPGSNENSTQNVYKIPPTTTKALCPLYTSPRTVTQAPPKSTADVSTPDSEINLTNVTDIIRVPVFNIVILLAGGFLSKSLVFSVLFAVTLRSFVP

The target in one assay is T1, human TREM2 on cells (human, UniProt Q9NZC2 19-230).
T1 sequence: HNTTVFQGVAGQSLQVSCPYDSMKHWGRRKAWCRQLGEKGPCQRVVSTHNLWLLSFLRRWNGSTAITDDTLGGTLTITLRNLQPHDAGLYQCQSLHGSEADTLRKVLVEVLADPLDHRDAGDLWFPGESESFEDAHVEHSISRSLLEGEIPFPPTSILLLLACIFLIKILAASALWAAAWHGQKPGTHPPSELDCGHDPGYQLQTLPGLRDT
Briefly: cell-based or functional assay.

For assay [1], the target named is T2, cynomolgus TREM2 on transfected HEK293 cells (cynomolgus, UniProt A0A2K5UY34 49-260).
T2 construct: also called Cyno TREM2
T2 sequence: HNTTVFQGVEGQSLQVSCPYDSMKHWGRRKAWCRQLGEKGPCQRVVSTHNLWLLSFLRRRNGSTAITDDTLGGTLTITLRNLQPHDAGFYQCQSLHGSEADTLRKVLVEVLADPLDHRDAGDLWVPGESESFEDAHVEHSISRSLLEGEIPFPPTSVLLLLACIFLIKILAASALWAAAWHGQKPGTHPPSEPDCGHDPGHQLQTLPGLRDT
Briefly: FACS, transfected HEK293 cells. (In flow cytometry, cells or beads pass a laser one at a time.)

The target in the next assay is T3, mouse TREM2 on cells (mouse, UniProt Q99NH8 19-227).
T3 construct: whole, on cells
T3 sequence (looked up): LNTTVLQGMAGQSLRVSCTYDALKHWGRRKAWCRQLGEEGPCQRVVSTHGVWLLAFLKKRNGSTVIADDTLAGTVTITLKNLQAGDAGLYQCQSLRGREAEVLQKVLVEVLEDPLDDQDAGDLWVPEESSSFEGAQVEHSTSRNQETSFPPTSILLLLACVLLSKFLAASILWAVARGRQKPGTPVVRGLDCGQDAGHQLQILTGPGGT
Briefly: FACS, transfected HEK293 cells.

The target in assay [2] is T4, human TREM1 on a cell line stably expressing human TREM1/DAP12 (human, UniProt Q9NP99 21-234).
T4 construct: signal peptide 1-20 left out
Briefly: FACS, human TREM1/DAP12 cell line.

For assay [3], the target named is T4, human TREM1 on a cell line stably …. Briefly: FACS on cell line stably expressing human TREM1/DAP12.
For assay [4], the target named is T5, recombinant soluble human TREM2 protein (human TREM2 ECD-FlagHis) (human, UniProt Q9NZC2 19-174).
T5 sequence: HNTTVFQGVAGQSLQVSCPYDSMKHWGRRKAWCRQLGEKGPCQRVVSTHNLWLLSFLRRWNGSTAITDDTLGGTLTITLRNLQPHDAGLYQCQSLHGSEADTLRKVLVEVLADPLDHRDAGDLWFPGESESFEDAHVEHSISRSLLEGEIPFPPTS
Briefly: Octet BLI, antibody on anti-human Fc sensor, 25 C. Here is the method:
(§1) To quantitate the binding affinity of agonist antibodies for human TREM2, association and dissociation rate constants as well as the equilibrium dissociation constant were determined using anti-human Fc (Kinetic) sensors on an Octet® HTX instrument (Pall ForteBio). Agonist anti-TREM2 antibodies were made up in DMEM null media, 250 μL at 10 μg/mL. The, 250 uL of assay buffer (10 mM Tris (pH 7.6), 0.1% Triton X-100, 150 mM NaCl, 1mM CaCl₂, and 1 mg/mL BSA) was added to the antibody solutions to a final volume of 500 μL and final antibody concentration of 5 μg/mL. The anti-human Fc sensor was pre-incubated in 200 μL of the assay buffer for a minimum of 10 minutes. The sensor was then regenerated for 5 seconds in 10 mM glycine pH 1.5. Test agonist anti-TREM2 antibodies were loaded onto the sensor for 2 minutes, and baseline measurements were taken for 2 minutes. […] The recombinant TREM2 proteins were allowed to associate with the antibody-loaded sensor for 10 minutes, and then dissociation was measured for 10 minutes. The assay was conducted at 25° C. Experimental kinetic results were globally fit to a 1:1 binding model in order to determine the association and dissociation rate constants as well as the equilibrium dissociation constant.

Assay [5] concerns the target T6, recombinant soluble cynomolgus TREM2 protein (cynomolgus TREM2 extracellular domain coupled to a Flag/His tag) (cynomolgus, UniProt A0A2K5UY34 49-204).
T6 construct: extracellular domain; also called Cyno TREM2
T6 sequence: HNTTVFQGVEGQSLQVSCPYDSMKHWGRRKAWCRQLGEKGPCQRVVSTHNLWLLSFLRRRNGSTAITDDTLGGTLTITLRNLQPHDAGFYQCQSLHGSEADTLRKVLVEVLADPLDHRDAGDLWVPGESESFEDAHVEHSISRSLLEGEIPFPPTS
Briefly: Octet BLI, antibody on anti-human Fc sensor, 25 C. Here is the method: as §1
A general note: Biolayer interferometry detects binding as a change in optical thickness at a sensor tip.

B1: 5E3 (antibody, human IgG2, V domains shown)
VH: QVQLVQSGAEVKKPGASVKVSCKASGYTFTGYYIHWVRQAPGLGLEWMGWINPYSGGTTSAQKFQGRVTMTRDTSISSAYMELSRLRSDDTAVYYCARDGGYLALYGTDVWGQGTTVTVSS
VL: DIQMTQSPSSLSASVGDRVTITCRASQGISNYLAWFQQKPGKAPKSLIYAASSLQSGVPSKFSGSGSGTDFTLTISSLQPEDFATYYCQQYSTYPFTFGPGTKVDIK
notes: human IgG2 from hybridoma
Take B1: the “pSyk fold over control” value with human TREM2 on cells was found to be 8.02 fold. Besides, the “GM fold over irrelevant control antibody” value came to 89.6 fold in assay [1], 2.6 fold with mouse TREM2 on cells and 1.1 fold in assay [2]. The binding result in assay [3] was “no binding”. Further, the koff in assay [4] was 0.00053 s⁻¹; in assay [5], 0.0011 s⁻¹. The kon came out at 250000 M⁻¹ s⁻¹ in assay [4] and 700000 M⁻¹ s⁻¹ in assay [5].

B2: 4G10 (antibody, human IgG2, V domains shown)
VH: EVQLVQSGAEVKKPGESLKISCKGSGYSFPSYWIAWVRQMPGKGLEWMGIIYPGDSDTRYSPSFQGQVTISADKSISTAFLKWSSLKASDTAMYFCARQGIEVTGTGGLDVWGQGTTVTVSS
VL: DIQMTQSPSSLSASVGDRVTITCRASQGIRNDLGWYQQKPGNAPKRLIYAASSLPSGVPSRFSGSGSGPEFTLTISSLQPEDFATYYCLQHNSYPWTFGQGTKVEIT
notes: human IgG2 from hybridoma
Turning to B2, in the assay with human TREM2 on cells, the “pSyk fold over control” value came to 11.7 fold. Moreover, the “GM fold over irrelevant control antibody” value in assay [1] was 96.3 fold; with mouse TREM2 on cells, 4.1 fold; in assay [2], 1.2 fold. Also, the binding result in assay [3] was “no binding”. Also, the values for the koff in assay [4] and in assay [5] were 0.00098 s⁻¹ and 0.00096 s⁻¹, respectively. The kon is 300000 M⁻¹ s⁻¹ in assay [4] and 560000 M⁻¹ s⁻¹ in assay [5].

B3: 10E3 (antibody, human IgG2, V domains shown)
VH: EVQLVQSGAEVKKPGESLMISCKGSGYSFTNYWIGWVRQMPGKGLEWMGIIYPGDSDTRYSPSFQGQVTISADKSISTAYLQWSSLKASDTAMYFCARRRQGIWGDALDIWGQGTLVTVSS
VL: EIVMTQSPATLSVSPGERATLSCRASQSVSSNLAWFQQKPGQAPRLLIYGASTRATGIPARFSVSGSGTEFTLTISSLQSEDFAFYYCLQDNNWPPTFGPGTKVDIK
notes: human IgG2 from hybridoma
For the molecule B3, in the assay with human TREM2 on cells, the “pSyk fold over control” value came out at 12.1 fold. For the same molecule, the “GM fold over irrelevant control antibody” value worked out at 82.8 fold in assay [1], 1.1 fold with mouse TREM2 on cells and 1.6 fold in assay [2]. In assay [3], the binding result is listed as “no binding”. In addition, the koff in assay [4] was 0.00182 s⁻¹; in assay [5], 0.00366 s⁻¹. Further, the kon stood at 177000 M⁻¹ s⁻¹ in assay [4] and 324000 M⁻¹ s⁻¹ in assay [5].

B4: 14C12 (antibody, human IgG2, V domains shown)
VH: EVQLVQSGAEVKKPGESLMISCKGSGYSFTSYWIGWVRQMPGKGLEWMGIIYPGDSDTRYSPSFQGQVTISADKSISTAYLQWSSLKASDTAMYFCARRRQGIWGDALDFWGQGTLVTVSS
VL: EIVMTQSPATLSVSPGERATLSCRASQSVSSNLAWFQQKPGQAPRLLIYGASTRATGIPARFSVSGSGTEFTLTISSLQSEDFAVYYCLQDNNWPPTFGPGTKVDIK
notes: human IgG2 from hybridoma
B4: the “pSyk fold over control” value with human TREM2 on cells was 11.1 fold. In addition, the “GM fold over irrelevant control antibody” value in assay [1] was 63.2 fold; with mouse TREM2 on cells it was 1.1 fold; in assay [2], 1.4 fold. Further, in assay [3], the binding result is on record as “no binding”.

B5: 13E7 (antibody, human IgG2, V domains shown)
VH: EVQLVQSGAEVKKPGESLMISCKGSGYSFTSYWIGWVRQMPGKGLEWMGIIYPGDSDTRYSPSFQGQVTISADKSISTAYLQWSSLKASDTAMYFCARRRQGIWGDALDFWGQGTLVTVSS
VL: EIVMTQSPATLSVSPGERATLSCRASQSVSSNLAWFQQKPGQAPRLLIYGASTRATGIPARFSVSGSGTEFTLTISSLQSEDFAVYYCLQDNNWPPTFGPGTKVDIK
notes: human IgG2 from hybridoma
For B5, the “pSyk fold over control” value with human TREM2 on cells is 11.4 fold. The “GM fold over irrelevant control antibody” value in assay [1] was 67.5 fold; with mouse TREM2 on cells, 1.1 fold; in assay [2], 1.4 fold. The binding result in assay [3] is “no binding”. In addition, the values for the koff in assay [4] and in assay [5] were 0.00158 s⁻¹ and 0.00237 s⁻¹, respectively. The kon turned out to be 144000 M⁻¹ s⁻¹ in assay [4] and 272000 M⁻¹ s⁻¹ in assay [5].

B6: 4C5 (antibody, V domains shown)
VH: EVQLVQSGAEVKKPGESLKISCKGSGHSFTNYWIAWVRQMPGKGLEWMGIIYPGDSDTRYSPSFQGQVTISADKSISTAYLQWSSLKASDTAVYFCARQRTFYYDSSGYFDYWGQGTLVTVSS
VL: DIQMTQSPSSVSASVGDRVTITCRASQGISNWLAWYQQKPGKAPKLLIYAASSLQVGVPLRFSGSGSGTDFTLTISSLQPEDFATYYCQQADSFPRNFGQGTKLEIK
notes: human IgG2 from hybridoma
B6: the “pSyk fold over control” value with human TREM2 on cells is 9.26 fold. For the same molecule, the “GM fold over irrelevant control antibody” value in assay [1] amounted to 42.3 fold; with mouse TREM2 on cells, 0.4 fold; in assay [2], 0.8 fold. Besides, the binding result in assay [3] was “no binding”. Moreover, the koff in assay [4] was determined as 0.00049 s⁻¹; in assay [5], 0.0012 s⁻¹. For the same molecule, the kon is 160000 M⁻¹ s⁻¹ in assay [4] and 330000 M⁻¹ s⁻¹ in assay [5].

B7: 6E7 (antibody, human IgG2, V domains shown)
VH: EVQLVQSGAEVKKPGESLKISCKGSGYSFTSYWIAWVRQMPGKGLEWMGIIYPGDSDTRYSPSFQGQVTISADKSISTAYLQWSSLKASDTAMYFCARQRTFYYDSSDYFDYWGQGTLVTVSS
VL: DIQMTQSPSSVSASVGDRVTITCRASQGISSWLAWYQQKPGKAPKLLIYAASSLQNGVPSRFSGSGSGTDFTLTISSLQPEDFATYFCQQADSFPRTFGQGTKLEIK
notes: human IgG2 from hybridoma
B7: in the assay with human TREM2 on cells, the “pSyk fold over control” value worked out at 13.7 fold. For the same molecule, the “GM fold over irrelevant control antibody” value in assay [1] worked out at 82.7 fold; with mouse TREM2 on cells it was 1.2 fold; in assay [2], 1.2 fold. The binding result in assay [3] was “no binding”. The koff in assay [4] is 0.00069 s⁻¹; in assay [5], 0.0011 s⁻¹. Further, the on-rate (kon) in assay [4] came out at 270000 M⁻¹ s⁻¹; in assay [5], 460000 M⁻¹ s⁻¹.

By koff is commonly meant a measure of how fast the partners let go of each other. What is called kon is a measure of how fast the partners come together.
